In patent US20210061861A1, “D-PEPTIDIC COMPOUNDS FOR VEGF” (Reflexion Pharmaceuticals, Inc., priority 2019, published 2021):
Numbering of substitutions follows the chain as printed. Values belong to the binder of their own block, whether it stands above or below them.

Sequences of proteins named here, by UniProt entry; tags and fusion partners are left off. Residues count along the entry.
UniProt P15692, 214-315 limits assumed: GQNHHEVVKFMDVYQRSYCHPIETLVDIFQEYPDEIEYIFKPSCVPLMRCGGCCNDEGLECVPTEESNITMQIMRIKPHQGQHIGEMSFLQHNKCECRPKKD

Molecular target: L-VEGF-A (8-109) (Homo sapiens (Human)) (UniProt P15692)
Assay: SPR per Examples 7, 8, 11 (method not named in Table 4)

Kd: 5.2 nM
B1: 979102 (designed binder)
chain: FNIQWICKNAKEDAIAELKKAGITEPHVISFINHAPSCSHVNGLKNAILKAHA
modifications: all residues D-amino acids (Gly achiral); c7-c38 disulfide

Kd: 5.8 nM
B2: 979108 (designed binder)
chain: B1 chain with F1P, N2S, I3V
modifications: all residues D-amino acids (Gly achiral); c7-c38 disulfide

Kd: 5.2 nM
B3: 979107 (designed binder)
chain: B1 chain with F1I, N2P, I6V
modifications: all residues D-amino acids (Gly achiral); c7-c38 disulfide

Kd: 3.7 nM
B4: 979109 (designed binder)
chain: B1 chain with F1R, I6V, S37N
modifications: all residues D-amino acids (Gly achiral); c7-c38 disulfide
